Laboratory results: ChEMBL document CHEMBL1152815, “Synthesis and evaluation of imidazole-dioxolane compounds as selective heme oxygenase inhibitors: effect of substituents at the 4-position of the dioxolane ring” (Bioorg Med Chem, 2009)

Organism: Rattus norvegicus
Assay: Selectivity index, ratio of IC50 for Sprague-Dawley rat brain heme oxygenase-2 to IC50 for Sprague-Dawley rat spleen heme oxygenase-1
Type: tissue-based

Row | Compound | Ratio IC50
1 | Clc1ccc(CC[C@@]2(Cn3ccnc3)OC[C@@H](CSc3ccc(Cl)cc3)O2)cc1 | 4.3
2 | O=[N+]([O-])c1ccc(SC[C@@H]2CO[C@@](CCc3ccc(Cl)cc3)(Cn3ccnc3)O2)cc1 | 3
3 | Clc1ccc(CC[C@@]2(Cn3ccnc3)OC[C@@H](CSc3ccc4ccccc4c3)O2)cc1 | 30
4 | Fc1ccc(SC[C@@H]2CO[C@@](CCc3ccc(Cl)cc3)(Cn3ccnc3)O2)cc1 | 2
